From publication PMC10418364

Molecular target: acetylated α-tubulin (human (endogenous in post-mortem human brain)) (UniProt Q71U36)
Test: proximity ligation; in situ Duolink PLA on paraffin sections of the substantia nigra of post-mortem human brain; anti-acetylated α-tubulin mouse antibody and anti-α-synuclein rabbit antibody, repeated with anti-acetylated α-tubulin rabbit antibody and anti-α-synuclein mouse antibody (LB509)

α-synuclein (from UniProt P37840 1-140) (natural protein)
PLA signal normalized on acetylated α-tubulin: 0.081
